In the library only some 1.6% were active in any assay of this set; here they are far more common.
Vif imaging: inhibitors of HIV Vif. HEK293T cells, Vif self-association by quenched fluorescence, imaging, 24 h. inhibition, % at 7.49 µM. 340,000 compounds, 0.35% hits; in the data active means inhibition above about 50%, passing the limit was not always enough
ARNT TACC3 PPI: ARNT/TACC3 interaction disruption | AID 623870 | 390,000 compounds, 0.66% hits | AlphaScreen His-ARNT PAS-B/GST-TACC3 binding, luminescence; TACC3 fragment carries E629A point mutation | inhibition, % at 9.99 µM;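 active means mean inhibition of replicates at least 50% and at least half of replicates each reaching 50%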;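 further: 0% = complete ARNT plus TACC3 wells and 100% = ARNT alone without TACC3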
CAL PDZ FP-1: CAL PDZ (human) peptide binding inhibition | Q9HD26 | purified CAL PDZ, TMR-peptide fluorescence polarization, 1 h | inhibition, % at 24.9 µM | 300,000 compounds, 0.92% hits | AID 602252;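 active means mean inhibition of at least 30% with at least half of replicates also reaching 30%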;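 further: 0% = DMSO neutral control and 100% = excess unlabeled competitor peptide PRC23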
CAL PDZ FP-2: inhibitors of human CAL PDZ peptide binding; purified CAL PDZ, TMR-peptide fluorescence polarization, 1 h; inhibition, % at 20 µM; 330,000 compounds, 0.02% hits; AID 504414;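 active means highest replicate inhibition of at least 40%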;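 further: plate controls were DMSO neutral control wells for no effect and unlabeled competitor peptide control wells for full effect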
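Test system: purified CerCALP PDZ construct; Compound dosing: one concentration, 20 µM compound; Also added: TMR-labelled reporter peptide T*-PRC34 bound in PDZ groove; Read-out: inhibition from polarization loss; Controls: unlabelled peptide and DMSO controls; Signal: FP readout, S and P plane fluorescence; Incubation: 1 h at RT.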
PglD DTNB: PglD (C. jejuni) enzyme inhibition. purified PglD enzyme, DTNB colorimetric CoA detection. 360,000 compounds, 0.098% hits. inhibition, % at 12.5 µM; in the data active means inhibition above about 16%, passing the limit was not always enough
UUG fidelity: alters start codon recognition fidelity in yeast; S. cerevisiae UUG-firefly luciferase reporter, luminescence/redox ratio; activity score, % at 18.7 µM; actives 0.13% (n = 350,000); AID 602363;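 active = replicate mean at a twofold rise or more, about +100% in these data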;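 also: firefly luciferase made from a UUG start codon reports start codon fidelity; reporter light over untreated wells divided by growth signal over untreated wells; some hits fall short of that in this replicate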
Numbers without * were called inactive; · = no result given.

(1) CCCC#Cc1ccc2c(c1)O[C@H](CN(C)C(=O)C1CCC1)[C@H](C)CN([C@@H](C)CO)S2(=O)=O
(2) COc1ccc(C(=O)NCc2nnc(SCC(=O)NCc3ccco3)o2)cc1
(3) Cc1ccc(S(=O)(=O)c2nc(Nc3ccccc3C#N)sc2Cl)cc1
(4) Cc1ccc(S(=O)(=O)c2nc(NN(C)C)sc2Cl)cc1
(5) Cc1ccccc1S(=O)(=O)NCC[C@H]1CC[C@@H](NC(=O)C2CCCC2)[C@H](CO)O1
(6) COCCn1c(SCC(=O)Nc2ccc(OC)c(S(N)(=O)=O)c2)nc2ccccc2c1=O
(7) COCCn1c(SCC(=O)Nc2ccc3[nH]c(=O)[nH]c3c2)nc2ccccc2c1=O
(8) C[C@@H]1CN([C@H](C)CO)S(=O)(=O)c2ccc(C#CC3CC3)cc2O[C@@H]1CN(C)Cc1cccnc1
compound no. | 1 | 2 | 3 | 4 | 5 | 6 | 7 | 8
PglD DTNB | -3 | -3 | · | · | 1 | -2 | 0 | 0
Vif imaging | · | -6 | -6 | -7 | · | 0 | -18 | ·
ARNT TACC3 PPI | -3 | 5 | 1 | 5 | -4 | -6 | -4 | 0
UUG fidelity | -2 | -4 | · | · | 21 | -11 | -17 | 5
CAL PDZ FP-2 | · | -1 | -1 | 9 | · | 0 | 0 | ·
CAL PDZ FP-1 | · | 88* | 0 | 120* | · | 41* | -5 | ·

(9) C[C@@H](NC(=O)C[C@@H]1C[C@@H]2c3cc(NC(=O)Nc4ccccc4F)ccc3O[C@@H]2[C@@H](CO)O1)c1ccccc1
(10) Cc1ccc(S(=O)(=O)N(C)C)cc1NC(=O)CSc1ncn[nH]1
(11) CCOC(=O)c1c(C)c(C(=O)NCc2ccccn2)c(C)n1CC
(12) CCOC(=O)c1ccc(NC(=O)C(=O)NCc2ccccn2)cc1
(13) Cc1onc(-c2c(F)cccc2Cl)c1C(=O)NCc1ccccn1
(14) Cc1onc(-c2ccccc2Cl)c1C(=O)NCc1ccccn1
(15) C/C=C/c1cccc(-c2nc(C(=O)NCc3ccccc3)cc3c2[C@@H](CCO)N([S@](=O)C(C)(C)C)C3)c1
(16) O=c1[nH]nc(N=Nc2c(O)[nH]c3ccc(F)cc23)c(=O)[nH]1
compound no. | 9 | 10 | 11 | 12 | 13 | 14 | 15 | 16
PglD DTNB | 0 | 1 | · | 7 | 0 | -4 | -4 | -6
Vif imaging | · | -5 | -9 | -6 | -9 | 22 | · | 4
ARNT TACC3 PPI | -13 | 1 | 48* | · | 5 | -3 | 15 | 63*
UUG fidelity | -3 | -2 | · | -25 | -13 | -11 | · | -1
CAL PDZ FP-2 | · | -1 | 1 | -1 | -1 | 0 | · | -4
CAL PDZ FP-1 | · | 34* | · | -4 | 88* | · | · | -1

(17) CNC[C@H]1Oc2c(NS(=O)(=O)c3ccc(C)cc3)cccc2C(=O)N([C@@H](C)CO)C[C@@H]1C
(18) COc1ccc(C2CC(c3ccccc3OC(C)=O)=NN2C(C)=O)cc1 (stereo not drawn)
(19) COc1ccc(C2CC(c3ccccc3OC(C)=O)=NN2C(=O)/C=C/c2ccccc2)cc1 (stereo not drawn)
(20) CC(=O)Oc1ccccc1C1=NN(C(=O)/C=C/c2ccccc2)C(c2ccccc2)C1 (stereo not drawn)
(21) CC(C)(C)S(=O)N1Cc2cc(C(=O)O)nc(-c3cccc(-c4cccc(F)c4)c3)c2[C@H]1CCO (stereo partly drawn)
(22) C[C@@H]1CN([C@@H](C)CO)C(=O)c2cc(N(C)C)ccc2O[C@@H]1CN(C)C(=O)NC1CCCCC1
(23) COc1ccc(C(=O)Nc2nnc(C3=COCCO3)o2)cc1
(24) O=C(COc1ccc(Cl)cc1)Nc1nnc(C2=COCCO2)o1
compound no. | 17 | 18 | 19 | 20 | 21 | 22 | 23 | 24
PglD DTNB | 5 | · | -2 | -7 | 6 | -2 | -1 | ·
Vif imaging | · | -3 | 8 | -2 | · | · | 2 | -2
ARNT TACC3 PPI | -2 | -3 | 8 | 9 | 1 | 0 | 58* | 47*
UUG fidelity | -16 | · | -13 | -14 | · | · | -21 | ·
CAL PDZ FP-2 | · | -1 | -1 | -1 | · | · | -2 | -1
CAL PDZ FP-1 | · | 91* | 52* | -2 | · | · | -2 | -1

Random excerpt: 2 compounds from above
(18) COc1ccc(C2CC(c3ccccc3OC(C)=O)=NN2C(C)=O)cc1 (stereo not drawn)
(21) CC(C)(C)S(=O)N1Cc2cc(C(=O)O)nc(-c3cccc(-c4cccc(F)c4)c3)c2[C@H]1CCO (stereo partly drawn)
compound no. | 18 | 21
PglD DTNB | · | 6
Vif imaging | -3 | ·
ARNT TACC3 PPI | -3 | 1
UUG fidelity | · | ·
CAL PDZ FP-2 | -1 | ·
CAL PDZ FP-1 | 91* | ·

Other results.
(25) COc1ccc(NC(=O)N(C)C[C@@H]2Oc3ccc(NC(=O)Nc4c(C)noc4C)cc3C(=O)N([C@H](C)CO)C[C@@H]2C)cc1
(26) Cn1c(=O)cc(OCC(=O)NCCCN2CCN(Cc3ccccc3)CC2)c2ccccc21
(27) CN1CCN(CCCNC(=O)CCCOc2cc(=O)n(C)c3ccccc23)CC1
(28) COc1ccc(CNC(=O)Nc2cccs2)cc1OC
(29) COCC(=O)N(Cc1cc2ccccc2[nH]c1=O)c1ccc(OC)cc1
compound no. | 25 | 26 | 27 | 28 | 29
PglD DTNB | 1 | 5 | -6 | 2 | ·
Vif imaging | · | 7 | -13 | 56* | 2
ARNT TACC3 PPI | 0 | · | -1 | 4 | 4
UUG fidelity | -31 | -12 | -19 | -30 | -17
CAL PDZ FP-2 | · | 0 | -2 | -1 | 0
CAL PDZ FP-1 | · | 39* | 2 | -8 | 62*
